Measured values published in patent US20020019533A1, “PIPERIDINE DERIVATIVES AND ANTI-PLATELET AGENTS CONTAINING THE SAME” (priority 1994, published 2002).

The chains behind the UniProt entries cited, without tags or fusion partners.
UniProt Q75Z89, whole entry: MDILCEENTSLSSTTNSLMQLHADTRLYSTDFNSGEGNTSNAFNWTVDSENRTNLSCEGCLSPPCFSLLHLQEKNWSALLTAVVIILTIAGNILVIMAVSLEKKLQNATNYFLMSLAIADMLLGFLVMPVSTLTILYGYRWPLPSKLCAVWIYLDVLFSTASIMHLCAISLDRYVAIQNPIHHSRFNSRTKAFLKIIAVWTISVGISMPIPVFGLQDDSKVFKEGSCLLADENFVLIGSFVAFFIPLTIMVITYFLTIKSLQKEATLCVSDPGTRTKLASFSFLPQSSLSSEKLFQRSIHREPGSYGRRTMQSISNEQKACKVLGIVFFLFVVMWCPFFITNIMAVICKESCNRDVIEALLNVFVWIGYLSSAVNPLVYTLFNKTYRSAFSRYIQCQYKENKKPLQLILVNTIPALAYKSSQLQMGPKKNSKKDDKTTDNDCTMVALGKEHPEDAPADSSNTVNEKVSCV

Assays:
[1] = target: serotonin 2 receptor (Bos taurus, UniProt Q75Z89); assay: Binding affinity to the serotonin 2 receptor, [3H]-ketanserin, bovine cerebral cortex membrane; details: negative logarithm of Ki, 3 nM [3H]-ketanserin, 25° C., 30 minutes
Experimental: The binding affinity to the serotonin 2 receptor was evaluated using a bovine cerebral cortex membrane sample. To 200 μl of a bovine membrane sample adjusted to 50 mg (wet weight) membrane/ml were added 200 μl of 3 nM [^3H]-ketanserin and 200 μl of a test compound solution prepared by dissolving a test compound in 1.7% ethanol, followed by mixing. The mixture was incubated at 25° C. for 30 minutes and filtered with a glass filter. The radioactivity trapped on the filter was measured with a liquid scintillation counter. The non-specific binding was defined by 10^−6 M LY53857. The concentration of the test compound which inhibits 50% of the specific binding of [^3H]-ketanserin (i.e., IC50 value) was obtained, and the Ki value was calculated in accordance with the following equation. The results are shown as the negative logarithm of the Ki value (i.e., pKi value). [formula]
In the equation, Ki indicates the dissociation constant and [L] indicates the concentration of [^3H]-ketanserin.

[2] = test system: platelet of SD rats; assay: In vitro anti-platelet effect: platelet aggregation induced by ADP + serotonin in rat platelet rich plasma; format: cell-based; details: rat PRP, 0.5 μM or 0.8 μM ADP + serotonin, 50% inhibition of the serotonin-caused increase in aggregation
Experimental: The anti-platelet effect due to the serotonin antagonistic activity was measured in vitro using the platelet of SD rats (body weight: about 300 to 400 g, male). Platelet rich plasma (PRP) and platelet poor plasma (PPP) were prepared from blood with 0.38% sodium citrate which was obtained from aorta abdominalis of a rat under diethyl ether anesthesia. The platelet concentration of PRP was adjusted to 5×10^8 platelets/ml by adding PPP. Then, the test compound dissolved in 0.4% aqueous ethanol was added, and the mixture was incubated at 37° C. for 3 minutes. The platelet aggregation induced by addition of 0.5 μM or 0.8 μM adenosine diphosphate (ADP)+ serotonin was measured as an increase in optical transmittance of PRP. The concentration of the test compound which inhibits 50% of the increase in platelet aggregation which is obtained with serotonin without a test compound was measured, and its negative logarithm (pIC50) was calculated.

[3] = test system: platelet aggregation by serotonin; assay: In vivo anti-platelet effect after oral administration: ADP + serotonin induced aggregation of PRP taken 2 hours after dosing; details: 0.3 mg/kg oral, 2 hours after administration, arabic gum group = 100%, n=3
Experimental: The anti-platelet effect due to the serotonin antagonistic activity was measured in vivo using SD rats (body weight: about 210 to 330 g, male). Two hours after the administration of the test compound, the rat was anesthetized with diethyl ether and platelet rich plasma (PRP) and platelet poor plasma (PPP) were prepared from blood with 0.38% sodium citrate which was obtained from aorta abdominalis of the rat. The platelet concentration of PRP was adjusted to 5×10^8 platelets/ml by adding PPP. Then, the PRP was incubated at 37° C. for 3 minutes, and platelet aggregation induced by addition of 0.7 μM adenosine diphosphate (ADP)+ serotonin was measured as an increase in optical transmittance of PRP. The aggregation occurred by addition of ADP alone and the maximum aggregation ratio by the simultaneous addition of ADP and serotonin were measured with respect to each group, and increase in aggregation caused by serotonin was calculated. The increase in aggregation caused by serotonin in the arabic gum administered group was taken as 100%, and the effect of the test compound was judged using as an index the increase in aggregation caused by the serotonin in the test compound-administered group (n=3).

| pKi ([1]; tested form: hydrochloride) | pIC50 ([2]; tested form: hydrochloride) | Structure (SMILES) | pKi [1] | pIC50 [2] | Increase in aggregation by serotonin [3] |
| --- | --- | --- | --- | --- | --- |
| – | – | O=CN1CCC(C(=O)OCCN2CCC(=C3c4ccccc4C=Cc4ccccc43)CC2)CC1 | 8.3 | 7.4 | – |
| – | – | CC(=O)N1CCCCC1C(=O)NCCN1CCC(=C2c3ccccc3C=Cc3ccccc32)CC1 (centres unmarked) | 8.8 | – | – |
| 8.2 | 7.5 | COC(=O)N1CCC(C(=O)NCCN2CCC(=C3c4ccccc4C=Cc4ccccc43)CC2)CC1 | – | – | – |
| – | – | CN(C)C(=O)N1CCC(C(=O)NCCN2CCC(=C3c4ccccc4C=Cc4ccccc43)CC2)CC1 | 8.5 | 6.7 | – |
| – | – | c1ccc2c(c1)CCc1ccccc1C2=C1CCN(CCCCN2CCCCC2)CC1 | 7.9 | – | – |
| – | – | NCCN1CCC(=C2c3ccccc3Sc3ccccc32)CC1 | 8.4 | 5.0 | – |
| – | – | CC(=O)N1CCC(C(=O)NCCN2CCC(=C3c4ccccc4C=Cc4ccccc43)CC2)CC1 | 8.5 | 7.2 | – |
| – | – | CC(=O)NC1CCC(C(=O)NCCN2CCC(=C3c4ccccc4C=Cc4ccccc43)CC2)CC1 (centres unmarked) | 9.3 | – | – |
| – | – | CC(C)(C)OC(=O)NCCN1CCC(=C2c3ccccc3CCc3ccccc32)CC1 | 8.3 | – | – |
| – | – | O=CN1CCC(C(=O)NCCCN2CCC(=C3c4ccccc4C=Cc4ccccc43)CC2)CC1 | 8.3 | 6.4 | – |
| – | – | O=CN1CCC(C(=O)NCCN2CCC(=C3c4ccccc4CCc4ccccc43)CC2)CC1 | 8.9 | 5.8 | – |
| – | – | O=CN1CCC(C(=O)NCCN2CCC(=C3c4ccccc4CSc4ccc(F)cc43)CC2)CC1 | 7.1 | 5.6 | – |
| – | – | O=CN1CCC(C(=O)NCCN2CCC(=C3c4ccccc4Sc4ccccc43)CC2)CC1 | 9.2 | 7.1 | 54.5% |
